{"sequences": {"note": "By UniProt entry, the sequences of proteins in these tests, tags left out.", "UniProt Q9UPY3, whole entry, looked up": "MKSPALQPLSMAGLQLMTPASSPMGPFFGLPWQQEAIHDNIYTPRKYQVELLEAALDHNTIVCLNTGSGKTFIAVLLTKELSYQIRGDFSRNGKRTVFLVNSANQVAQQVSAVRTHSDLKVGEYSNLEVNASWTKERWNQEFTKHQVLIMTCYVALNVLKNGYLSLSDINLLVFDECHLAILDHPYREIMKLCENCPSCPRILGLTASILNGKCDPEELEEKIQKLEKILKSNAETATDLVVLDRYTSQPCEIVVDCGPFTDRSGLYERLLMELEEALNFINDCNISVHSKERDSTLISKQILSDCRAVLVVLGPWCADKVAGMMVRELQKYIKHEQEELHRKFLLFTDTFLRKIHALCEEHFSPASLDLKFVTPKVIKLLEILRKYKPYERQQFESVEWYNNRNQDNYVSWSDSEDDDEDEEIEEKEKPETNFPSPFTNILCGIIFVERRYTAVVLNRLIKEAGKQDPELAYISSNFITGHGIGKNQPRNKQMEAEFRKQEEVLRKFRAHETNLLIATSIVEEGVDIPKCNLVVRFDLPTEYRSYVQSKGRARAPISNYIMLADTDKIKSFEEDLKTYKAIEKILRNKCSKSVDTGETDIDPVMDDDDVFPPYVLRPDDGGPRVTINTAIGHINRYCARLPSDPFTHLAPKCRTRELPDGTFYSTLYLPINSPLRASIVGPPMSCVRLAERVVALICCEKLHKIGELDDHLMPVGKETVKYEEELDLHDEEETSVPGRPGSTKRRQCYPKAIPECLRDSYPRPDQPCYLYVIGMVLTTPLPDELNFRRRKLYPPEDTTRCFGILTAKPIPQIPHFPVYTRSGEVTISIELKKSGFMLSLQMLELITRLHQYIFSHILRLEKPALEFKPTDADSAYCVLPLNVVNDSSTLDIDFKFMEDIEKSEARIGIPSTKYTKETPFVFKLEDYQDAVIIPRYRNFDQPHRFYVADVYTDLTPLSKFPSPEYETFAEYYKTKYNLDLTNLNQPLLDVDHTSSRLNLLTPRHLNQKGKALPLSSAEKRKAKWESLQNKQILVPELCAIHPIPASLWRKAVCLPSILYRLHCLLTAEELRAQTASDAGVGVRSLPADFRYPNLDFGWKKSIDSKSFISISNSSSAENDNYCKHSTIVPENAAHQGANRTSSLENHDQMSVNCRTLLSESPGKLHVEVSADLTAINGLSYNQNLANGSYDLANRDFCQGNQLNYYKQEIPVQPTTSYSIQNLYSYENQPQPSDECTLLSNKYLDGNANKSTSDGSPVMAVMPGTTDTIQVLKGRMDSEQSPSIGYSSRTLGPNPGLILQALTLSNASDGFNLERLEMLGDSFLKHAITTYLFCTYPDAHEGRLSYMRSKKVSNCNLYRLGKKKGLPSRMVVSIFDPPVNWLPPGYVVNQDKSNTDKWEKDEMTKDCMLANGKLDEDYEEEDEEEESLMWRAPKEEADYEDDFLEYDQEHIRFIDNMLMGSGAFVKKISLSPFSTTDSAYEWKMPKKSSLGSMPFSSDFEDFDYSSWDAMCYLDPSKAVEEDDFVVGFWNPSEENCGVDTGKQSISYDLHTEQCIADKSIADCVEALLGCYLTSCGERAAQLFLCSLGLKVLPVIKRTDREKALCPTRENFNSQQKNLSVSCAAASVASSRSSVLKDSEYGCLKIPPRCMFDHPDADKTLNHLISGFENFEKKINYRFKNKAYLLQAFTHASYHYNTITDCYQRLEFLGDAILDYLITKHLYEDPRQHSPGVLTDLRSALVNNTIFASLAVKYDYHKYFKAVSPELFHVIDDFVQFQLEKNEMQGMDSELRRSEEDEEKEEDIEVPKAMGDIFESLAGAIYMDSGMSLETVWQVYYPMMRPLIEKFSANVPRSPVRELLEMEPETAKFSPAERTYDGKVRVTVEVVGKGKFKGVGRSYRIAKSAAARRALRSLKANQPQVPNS"}, "source": "PubChem BioAssay AID1347074", "about": "(Center for Chemical Genomics, University of Michigan, 2019)", "note": "Only a part is listed here, and it is no random draw. Activity calls are given as the source filed them. Rule as the data show it: active = z-score above about 3 (passing the limit was not always enough); inactive = the rest."}
{"target": "Endoribonuclease Dicer (Homo sapiens) (UniProt Q9UPY3)", "experiment": "Dicer cleavage of pre-miR-21 blockers – biochemical, cat-ELCCA, chemiluminescence, primary screen (AID 1347074);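 also: plate controls were vehicle for no effect and no enzyme for full effect; higher signal means more uncleaved substrate so more Dicer inhibition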", "details": "cat-ELCCA pre-miR-21 Dicer processing, at 25 µM, stronger effect = higher value"}
{"smiles": "Cc1ccccc1NC1CC(C)(C)NC(C)(C)C1", "z-score": "inactive: -0.68"}
